According to ChEMBL document CHEMBL6071192, “Modulation of the Adjuvant Potential of Imidazoquinoline-Based TLR7/8 Agonists via Alum Adsorption” (ACS Med Chem Lett, 2024):

Biological target: T1, Toll-like receptor 8 (Homo sapiens, UniProt Q9NR97)
T1 sequence (Q9NR97 whole entry): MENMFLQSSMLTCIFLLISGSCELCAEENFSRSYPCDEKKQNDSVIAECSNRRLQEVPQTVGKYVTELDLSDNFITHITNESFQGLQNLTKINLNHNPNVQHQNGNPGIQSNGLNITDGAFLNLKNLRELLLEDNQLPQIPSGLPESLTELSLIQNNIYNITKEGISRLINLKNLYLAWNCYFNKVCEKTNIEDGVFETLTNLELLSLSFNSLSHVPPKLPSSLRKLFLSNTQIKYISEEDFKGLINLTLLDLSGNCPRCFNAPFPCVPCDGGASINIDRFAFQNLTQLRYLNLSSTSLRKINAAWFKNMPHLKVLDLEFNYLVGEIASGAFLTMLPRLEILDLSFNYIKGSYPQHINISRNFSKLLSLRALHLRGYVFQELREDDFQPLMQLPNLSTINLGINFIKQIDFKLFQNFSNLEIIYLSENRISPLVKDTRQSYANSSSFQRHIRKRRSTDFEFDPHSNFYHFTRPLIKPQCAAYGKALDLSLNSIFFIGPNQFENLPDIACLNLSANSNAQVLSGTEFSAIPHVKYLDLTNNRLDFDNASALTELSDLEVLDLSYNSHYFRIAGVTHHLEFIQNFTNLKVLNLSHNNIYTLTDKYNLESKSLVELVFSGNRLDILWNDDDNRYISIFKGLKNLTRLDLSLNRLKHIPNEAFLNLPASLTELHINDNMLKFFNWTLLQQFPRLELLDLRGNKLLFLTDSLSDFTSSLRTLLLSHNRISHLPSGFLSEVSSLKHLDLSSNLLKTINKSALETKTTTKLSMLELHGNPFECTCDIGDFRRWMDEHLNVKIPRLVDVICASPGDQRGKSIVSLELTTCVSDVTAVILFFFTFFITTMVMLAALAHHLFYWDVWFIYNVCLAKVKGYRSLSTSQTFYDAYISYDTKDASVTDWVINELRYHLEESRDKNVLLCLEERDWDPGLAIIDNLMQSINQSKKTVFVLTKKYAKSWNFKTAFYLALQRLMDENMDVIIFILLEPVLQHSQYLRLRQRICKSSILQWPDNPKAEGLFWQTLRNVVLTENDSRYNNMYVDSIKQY
Experiment: Agonist activity at human TLR8 expressed in HEK293 cells harboring SEAP reporter gene by quanti-blue reagent based analysis
Assay type: cell-based

- EC50: 1700 nM
SMILES: CCCCc1nc2c(N)nc3ccccc3c2n1Cc1cccc(CN)c1
